Compound activity as filed in PubChem BioAssay.
This is a sample that favours compounds with a hit; in the whole collection about 4.2% have one here.
ALR inh – inhibitors of human sulfhydryl oxidase ALR; AID 485317; purified ALR, DTT oxidation, H2O2 HRP-luminol luminescence; inhibition, % (concentration not given with the values); P55789; hit rate 3.8% among 290,000;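 active = mean and each replicate at 75% or more; inconclusive = only one of the two met; inactive = neither met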;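 note: stock transfer was 7.5 nL into about 7.5 µL; 0% = neutral wells and 100% = wells with inactivated enzyme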
NALP1 inh – blocks the NALP1 inflammasome reconstituted in yeast; inhibition, % at 10 µM; AID 2071; S. cerevisiae NALP1/ASC/caspase-1 growth, X-gal OD620, 72 h; 280,000 compounds, 0.61% hits; in the data active = inhibition mostly above about 24%, no sharp cut-off; inactive = mostly below about 32%
MC4R antag cAMP – human MC4R antagonism in cAMP assay; 360,000 compounds, 0.48% hits; inhibition, % at 6.5 µM; P32245; MC4R-expressing cells, MTII-stimulated cAMP, LANCE TR-FRET;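 active = inhibition above its plate's cutoff, the mean of tested wells on that plate plus 3 SD, cut at about 29% in these data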
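material = U2OS cells stably expressing human melanocortin 4 receptor (MC4R) | also added = Melanotan II challenge | dosing = single nominal compound dose of 6.5 µM | detection = TR-FRET with Eu-cAMP and labeled anti-cAMP, 671 nm | replication = singlicate | timing = compound 30 min, challenge 1 h, detection 1 h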
HDAC3 inh – blocks human histone deacetylase 3 | O15379 | inhibition, % at 8.3 µM | 320,000 compounds, 0.15% hits | recombinant HDAC3, fluorogenic peptide/trypsin coupled, fluorescence; in the data active = inhibition above about 26%, passing the limit was not always enough; inconclusive = no clear call, values can overlap the other calls
MC4R ag barr – activates human MC4R beta-arrestin recruitment; P32245; U2OS MC4R beta-arrestin complementation, luminescence; percent of melanotan II response, DMSO zero; activation, % at 8.9 µM; 360,000 compounds, 0.98% hits; AID 540308;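 active = activation above a per-plate cutoff, the mean activation of sample wells on that plate plus 3 SD, cut at about 8% in these data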
Yeast UUG start – alters start codon recognition fidelity in yeast; AID 602363; activity score, % at 18.7 µM; 350,000 tested, 0.13% active; S. cerevisiae UUG-firefly luciferase reporter, luminescence/redox ratio;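 active means replicate mean at a twofold rise or more, about +100% in these data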;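 further: firefly luciferase made from a UUG start codon reports start codon fidelity; reporter light over untreated wells divided by growth signal over untreated wells; some hits fall short of that in this replicate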
Hits are given with their value; - = inactive; ? = inconclusive; . = no result.

SMILES	ALR inh	NALP1 inh	MC4R antag cAMP	HDAC3 inh	MC4R ag barr	Yeast UUG start
CC1(C)CC(=O)/C(=C\c2cccc([N+](=O)[O-])c2)C(C)(C)N1	-	67	-	-	-	.
Cc1noc(C)c1NC(=O)Nc1cccc2c1O[C@H](CN(C)C(=O)Nc1ccc(F)cc1)[C@@H](C)CN([C@H](C)CO)C2=O	.	.	.	.	.	-
CCN(CCCNC(=O)c1c(C)cc(=O)oc1C)c1cccc(C)c1	100	-	-	-	-	-
Cc1cc(=O)oc(C)c1C(=O)NCCNC(=O)c1c(C)cc(=O)oc1C	-	-	-	-	-	-
CCN(CCCNC(=O)Cn1ncc2c(=O)oc3ccccc3c21)c1cccc(C)c1	.	-	-	-	9.4	-
CN(C)CC(=O)N[C@@H]1CC[C@@H](CCNC(=O)C2CCCCC2)O[C@H]1CO	.	.	.	.	.	-
CCOc1ccc(S(=O)(=O)Nc2ccc(F)cc2)c(C)c1C	-	-	-	-	8.8	-
CO[C@@H]1CN(C)C(=O)c2ccc(NC(=O)c3ccc(Oc4ccccc4)cc3)cc2OC[C@H](C)NC[C@H]1C	.	.	.	.	.	-
O=C1c2[nH]nc(-c3ccccc3O)c2C(c2ccc(F)cc2)N1Cc1ccco1 (stereo not given)	-	-	-	-	13	-
CN1CCCc2cc(C=O)ccc21	-	-	-	-	-	-
CCCN1CCCc2cc(CN)ccc21	100	-	-	-	-	-
C[C@@H]1CCCCO[C@@H](CN(C)S(C)(=O)=O)[C@@H](C)CN([C@H](C)CO)C(=O)c2cc(NC(=O)Nc3ccc(F)cc3)ccc2O1	.	.	.	.	.	-
O=C(CSC1CC(=O)N(c2ccc(C(=O)O)cc2)C1=O)Nc1ccc(Cl)cc1 (stereo not given)	98	-	-	-	-	.
O=C(CSC1CC(=O)N(CCc2ccccc2)C1=O)Nc1cccc(Cl)c1 (stereo not given)	99	-	-	-	-	-
O=C(CSC1CC(=O)N(CCc2ccccc2)C1=O)Nc1ccc(Br)cc1 (stereo not given)	-	-	-	-	-	-
CN1c2ccc(Br)cc2[C@H]2[C@H](CCN2C(=O)C2CCCCC2)[C@H]1CO	.	.	.	.	.	-
N#Cc1ccc(CSc2nnc(NC(=O)c3ccc(=O)[nH]c3)s2)cc1	92	-	-	-	-	-
N#Cc1ccc(CSc2nnc(NC(=O)c3ccc4ncsc4c3)s2)cc1	?	-	-	-	-	.
Cc1ccc(CNC(=O)Nc2cccs2)cc1	-	-	-	-	-	-
CC1CCC(NC(=O)CNC(=O)c2cccs2)CC1 (stereo not given)	-	-	-	-	-	-
CC1CCC(NC(=O)Nc2cccs2)CC1 (stereo not given)	98	-	-	-	-	-
Cc1ccccc1NC(=O)Nc1cccs1	-	-	-	-	-	-
O=C(NCC1CC1)Nc1cccs1	99	.	-	-	-	.
O=C(Nc1cccs1)NC1CCCC1	99	-	-	-	-	-
CC(C)NC(=O)Nc1cccs1	97	-	-	-	-	-
SMILES	ALR inh	NALP1 inh	MC4R antag cAMP	HDAC3 inh	MC4R ag barr	Yeast UUG start
COCC(=O)N(C)C[C@@H]1Oc2cc(-c3ccncc3)ccc2S(=O)(=O)N([C@@H](C)CO)C[C@@H]1C	.	.	.	.	.	-
CCCN(C)C[C@@H]1Oc2cc(C#CC3CCCCC3)ccc2S(=O)(=O)N([C@@H](C)CO)C[C@H]1C	.	.	.	.	.	-
CC(C)NC(=O)N(C)C[C@@H]1Oc2ccc(NC(=O)Cc3cn(C)c4ccccc34)cc2C(=O)N([C@H](C)CO)C[C@H]1C	.	.	.	.	.	-
COc1ccc(NS(=O)(=O)c2ccc(N3CCCC3)c(N)c2)cc1	92	-	-	-	-	-
COc1ccc(NS(=O)(=O)c2cc(N)ccc2N2CCCC2)cc1	-	.	-	-	-	-
COc1ccc(S(=O)(=O)Nc2ccc(S(=O)(=O)N3CCCC3)cc2)cc1	-	-	-	-	-	-
COc1ccc(S(=O)(=O)Nc2ccc(S(=O)(=O)N3CCCCC3)cc2)cc1	97	-	-	-	-	-
O=C(Nc1cc(F)ccc1F)N1C[C@H]2[C@@H](c3ccccc31)[C@H](CO)N2CC1CCCC1	.	.	.	.	.	-
CCOC(=O)N(C)C[C@@H]1OCc2ccccc2-c2ccccc2C(=O)N([C@@H](C)CO)C[C@H]1C	.	.	.	.	.	-
Cc1ccc(-c2nc3ccccn3c2Nc2ccccc2)o1	99	-	-	-	-	.
Cc1ccc(-c2nc3cnccn3c2Nc2ccccc2)o1	98	-	-	-	-	-
Cc1ccc(Nc2c(-c3ccc(C)o3)nc3cnccn23)cc1	.	-	-	-	-	-
O=C(c1cccnc1)N1C[C@H]2[C@@H](c3ccccc31)[C@@H](CO)N2C(=O)Nc1cccc(F)c1	.	.	.	.	.	-
Cc1ccc(N/N=C/c2ccc(N3CCOCC3)cc2)cc1C	99	-	-	-	-	-
Cc1ccc(/C=N/Nc2cc(C)nc(N3CCOCC3)n2)cc1	-	-	-	-	-	.
CC(C)CCNC(=O)C1CCN(S(=O)(=O)c2ccc3c(c2)CCC(=O)N3)CC1	84	-	-	-	-	-
Cc1ccc(CCNC(=O)C2CCN(S(=O)(=O)c3ccc4c(c3)CCC(=O)N4)CC2)cc1	-	-	-	-	-	-
CCOc1ccccc1N=c1oc2cc(O)ccc2cc1C(=O)NCC1CCCO1 (stereo not given)	98	-	-	-	-	-
CCOc1ccc(N=c2oc3cc(O)ccc3cc2C(=O)NCC2CCCO2)cc1 (stereo not given)	-	-	-	-	-	-
O=C(Nc1cnn(Cc2ccc(F)cc2)c1)c1cc(-c2cccs2)on1	-	-	-	-	13	.
CCCc1cn(CC[C@H]2CC[C@@H](NC(=O)CCN3CCCCC3)[C@@H](CO)O2)nn1	.	.	.	.	.	-
Cc1[nH]n(C(N)=S)c(=O)c1N=Nc1cc(-c2ccc(Br)cc2)[nH]n1	99	-	-	-	-	-
Cc1c(N=Nc2c(-c3ccc([N+](=O)[O-])cc3)[nH]n(C(N)=S)c2=O)cccc1[N+](=O)[O-]	.	-	-	.	-	.
Cc1[nH]n(C(N)=S)c(=O)c1N=Nc1cccc([N+](=O)[O-])c1C	98	.	-	-	-	-
O=CN/C=C/c1cc(O)ccc1O	98	-	-	-	-	-
SMILES	ALR inh	NALP1 inh	MC4R antag cAMP	HDAC3 inh	MC4R ag barr	Yeast UUG start
O=Cc1ccc(O)cc1O	-	-	-	-	-	-
COCC(=O)Nc1ccc2c(c1)C(=O)N(C)[C@@H]1CC[C@@H](CC(=O)NCc3ccc(OC)cc3)O[C@@H]1CO2	.	.	.	.	.	-
CCN(CC)c1ccc(NC(=O)CCNC(=O)c2ccco2)cc1	99	-	-	-	-	-
O=S(=O)(Nc1ncnc2sc3c(c12)CCC3)c1cc(F)ccc1F	94	-	-	-	-	-
C[C@@H](O)C#Cc1cnc2c(c1)C(=O)N([C@@H](C)CO)C[C@H](C)[C@H](CN(C)CC1CC1)O2	.	.	.	.	.	-
COc1ccccc1N1CCN(C(=O)CN2C(=O)c3ccccc3C2=O)CC1	-	-	-	-	-	.
